Tests used:
[1] = Stereochemical analysis by chiral stationary phase HPLC (atropisomerism); assay type: physicochemical; details: chiral stationary phase HPLC (16 different conditions for the examples)
[2] = biological target: recombinant PI3 kinase γ (Homo sapiens (Human), UniProt P48736); experiment: Enzyme Inhibition Assay (HTRF PI3K enzyme assay, TR-FRET); assay type: biochemical; details: read-out: PI3 Kinase Inhibition IC50 values at stated Isozyme γ; activity range
[3] = biological target: recombinant PI3 kinase α (Homo sapiens (Human), UniProt P42336); experiment: as above; assay type: biochemical; details: read-out: PI3 Kinase Inhibition IC50 values at stated Isozyme α; activity range
[4] = biological target: recombinant PI3 kinase δ (Homo sapiens (Human), UniProt O00329); experiment: as above; assay type: biochemical; details: read-out: PI3 Kinase Inhibition IC50 values at stated Isozyme δ; activity range
[5] = tested on: H2O2 induced pAkt in D-U937 cells

By UniProt entry, the sequences of proteins in these tests, tags left out. Where a name states a change or a piece, a line headed by the entry shows the natural chain unless it says otherwise.
UniProt P48736, whole entry: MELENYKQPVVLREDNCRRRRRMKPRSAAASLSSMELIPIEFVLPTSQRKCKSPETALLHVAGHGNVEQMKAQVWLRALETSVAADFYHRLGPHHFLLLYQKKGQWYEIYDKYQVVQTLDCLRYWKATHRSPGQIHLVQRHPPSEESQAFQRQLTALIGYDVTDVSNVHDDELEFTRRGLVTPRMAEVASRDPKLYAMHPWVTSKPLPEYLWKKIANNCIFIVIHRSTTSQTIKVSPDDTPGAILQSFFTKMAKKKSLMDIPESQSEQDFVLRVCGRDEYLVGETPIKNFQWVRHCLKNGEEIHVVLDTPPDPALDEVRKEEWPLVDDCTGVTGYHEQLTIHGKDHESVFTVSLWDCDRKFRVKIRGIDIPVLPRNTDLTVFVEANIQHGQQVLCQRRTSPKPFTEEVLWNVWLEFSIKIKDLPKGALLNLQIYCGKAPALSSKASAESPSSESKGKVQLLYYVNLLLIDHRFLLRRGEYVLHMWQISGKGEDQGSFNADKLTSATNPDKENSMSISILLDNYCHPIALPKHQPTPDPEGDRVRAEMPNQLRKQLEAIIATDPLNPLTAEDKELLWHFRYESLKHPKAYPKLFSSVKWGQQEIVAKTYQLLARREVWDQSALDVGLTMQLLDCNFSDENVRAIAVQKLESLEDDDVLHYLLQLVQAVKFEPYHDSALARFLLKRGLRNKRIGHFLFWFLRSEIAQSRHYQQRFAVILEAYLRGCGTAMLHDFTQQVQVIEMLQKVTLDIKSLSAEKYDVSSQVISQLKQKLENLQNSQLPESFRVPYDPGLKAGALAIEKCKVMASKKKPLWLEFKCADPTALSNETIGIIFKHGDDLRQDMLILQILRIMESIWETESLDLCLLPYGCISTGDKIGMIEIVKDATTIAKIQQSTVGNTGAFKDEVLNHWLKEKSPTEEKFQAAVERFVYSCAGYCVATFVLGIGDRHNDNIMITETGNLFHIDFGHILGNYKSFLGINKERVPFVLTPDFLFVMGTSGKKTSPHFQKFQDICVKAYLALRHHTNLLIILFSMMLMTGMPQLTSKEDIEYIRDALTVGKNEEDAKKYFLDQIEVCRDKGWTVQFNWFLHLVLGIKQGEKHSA
UniProt P42336, whole entry: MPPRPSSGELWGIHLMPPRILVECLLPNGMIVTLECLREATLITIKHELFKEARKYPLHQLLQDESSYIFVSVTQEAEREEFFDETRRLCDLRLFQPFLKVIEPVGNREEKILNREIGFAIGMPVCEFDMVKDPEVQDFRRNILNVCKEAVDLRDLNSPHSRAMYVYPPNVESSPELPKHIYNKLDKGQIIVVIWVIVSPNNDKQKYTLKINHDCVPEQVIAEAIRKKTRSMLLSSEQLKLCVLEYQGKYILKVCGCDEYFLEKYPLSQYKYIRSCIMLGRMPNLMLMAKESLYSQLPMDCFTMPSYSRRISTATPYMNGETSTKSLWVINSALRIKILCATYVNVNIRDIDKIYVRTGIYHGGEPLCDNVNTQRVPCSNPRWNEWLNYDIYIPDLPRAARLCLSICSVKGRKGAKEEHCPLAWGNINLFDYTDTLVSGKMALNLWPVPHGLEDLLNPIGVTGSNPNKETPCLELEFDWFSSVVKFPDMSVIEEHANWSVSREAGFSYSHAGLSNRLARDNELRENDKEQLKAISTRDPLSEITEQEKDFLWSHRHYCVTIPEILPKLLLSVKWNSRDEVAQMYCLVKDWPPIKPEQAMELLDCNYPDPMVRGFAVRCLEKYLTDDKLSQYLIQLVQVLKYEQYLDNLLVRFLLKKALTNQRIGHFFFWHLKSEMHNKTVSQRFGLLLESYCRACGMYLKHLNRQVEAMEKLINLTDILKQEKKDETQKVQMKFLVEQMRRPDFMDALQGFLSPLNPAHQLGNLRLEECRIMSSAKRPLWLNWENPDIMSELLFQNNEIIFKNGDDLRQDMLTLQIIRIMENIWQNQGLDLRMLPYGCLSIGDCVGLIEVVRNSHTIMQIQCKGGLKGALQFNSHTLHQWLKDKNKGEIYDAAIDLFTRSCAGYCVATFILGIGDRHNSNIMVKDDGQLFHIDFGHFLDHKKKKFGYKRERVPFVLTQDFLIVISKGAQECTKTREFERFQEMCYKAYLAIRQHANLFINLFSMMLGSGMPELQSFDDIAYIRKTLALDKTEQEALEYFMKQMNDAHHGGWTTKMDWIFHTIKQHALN
UniProt O00329, whole entry: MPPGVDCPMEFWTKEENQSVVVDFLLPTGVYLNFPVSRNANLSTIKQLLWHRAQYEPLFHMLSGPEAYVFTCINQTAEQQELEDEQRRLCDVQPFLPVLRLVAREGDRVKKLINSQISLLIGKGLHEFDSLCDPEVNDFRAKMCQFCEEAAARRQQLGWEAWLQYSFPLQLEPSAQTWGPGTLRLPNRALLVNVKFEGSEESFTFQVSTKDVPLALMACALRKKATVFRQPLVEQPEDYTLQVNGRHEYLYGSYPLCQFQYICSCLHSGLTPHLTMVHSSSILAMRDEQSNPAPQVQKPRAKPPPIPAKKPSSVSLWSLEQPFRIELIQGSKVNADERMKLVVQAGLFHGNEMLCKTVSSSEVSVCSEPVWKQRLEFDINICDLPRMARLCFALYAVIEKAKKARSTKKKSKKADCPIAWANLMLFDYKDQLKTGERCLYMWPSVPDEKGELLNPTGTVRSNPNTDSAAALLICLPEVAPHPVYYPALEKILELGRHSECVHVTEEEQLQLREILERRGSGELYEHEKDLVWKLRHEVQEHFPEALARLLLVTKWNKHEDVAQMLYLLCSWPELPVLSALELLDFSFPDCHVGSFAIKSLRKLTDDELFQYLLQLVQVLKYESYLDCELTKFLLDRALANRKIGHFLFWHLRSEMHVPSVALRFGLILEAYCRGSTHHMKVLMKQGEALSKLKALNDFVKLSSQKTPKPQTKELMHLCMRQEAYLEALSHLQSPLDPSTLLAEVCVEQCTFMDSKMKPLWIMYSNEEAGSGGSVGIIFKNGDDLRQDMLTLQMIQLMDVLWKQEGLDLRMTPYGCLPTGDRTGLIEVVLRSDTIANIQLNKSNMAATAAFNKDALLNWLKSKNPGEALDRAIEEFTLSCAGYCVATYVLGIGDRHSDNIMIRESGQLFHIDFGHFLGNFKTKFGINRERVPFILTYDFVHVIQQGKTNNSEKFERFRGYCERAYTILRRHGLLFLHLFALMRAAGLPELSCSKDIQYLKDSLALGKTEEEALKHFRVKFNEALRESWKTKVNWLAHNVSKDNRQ
UniProt P27986, whole entry partner: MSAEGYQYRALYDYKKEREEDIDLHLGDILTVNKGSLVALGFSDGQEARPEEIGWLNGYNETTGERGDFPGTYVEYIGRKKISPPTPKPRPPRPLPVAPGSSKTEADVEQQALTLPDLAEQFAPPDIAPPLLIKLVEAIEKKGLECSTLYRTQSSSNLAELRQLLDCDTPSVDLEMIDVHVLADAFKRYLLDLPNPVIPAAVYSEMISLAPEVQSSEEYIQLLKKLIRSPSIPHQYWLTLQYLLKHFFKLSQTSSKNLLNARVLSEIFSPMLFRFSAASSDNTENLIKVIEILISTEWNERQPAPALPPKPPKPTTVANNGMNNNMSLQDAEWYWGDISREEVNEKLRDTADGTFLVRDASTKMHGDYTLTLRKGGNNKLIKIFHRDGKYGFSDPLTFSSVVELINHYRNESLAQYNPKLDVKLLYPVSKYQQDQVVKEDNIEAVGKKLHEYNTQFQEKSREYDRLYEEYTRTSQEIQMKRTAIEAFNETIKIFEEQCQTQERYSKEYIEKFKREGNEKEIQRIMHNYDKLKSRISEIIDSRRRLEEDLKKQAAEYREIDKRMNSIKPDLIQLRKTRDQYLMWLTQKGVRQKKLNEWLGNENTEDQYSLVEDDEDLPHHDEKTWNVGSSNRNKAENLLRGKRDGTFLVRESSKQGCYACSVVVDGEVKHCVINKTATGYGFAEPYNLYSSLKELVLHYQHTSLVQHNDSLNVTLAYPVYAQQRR

SMILES	atropisomerism by chiral stationary phase HPLC [1]	IC50 [2]	IC50 [3]	IC50 [4]	IC50 [5]
C#Cc1cccc2nc(Cn3nc(-c4ccc(O)cc4)c4c(N)ncnc43)n(Cc3cccc(C#N)c3)c(=O)c12	no evidence for atropisomerism was observed	50 to 1000 nM	50 to 1000 nM	< 50 nM	< 10 nM
Nc1ncnc2c1c(-c1ccc(O)cc1)nn2Cc1nc2cccc(C#CCCCC(=O)NC3CCNC3)c2c(=O)n1Cc1ccccc1Cl (stereo not drawn)		< 50 nM	50 to 1000 nM	< 50 nM	< 10 nM

From patent publication US9321773B2, “Compounds” (Respivert Ltd, priority 2009, dated 2016)
